This test has as its target Hrh3 protein (Rattus norvegicus, UniProt Q5PPG3).

Chains of the proteins cited; added tags and fusions are not shown.
UniProt Q5PPG3, whole entry: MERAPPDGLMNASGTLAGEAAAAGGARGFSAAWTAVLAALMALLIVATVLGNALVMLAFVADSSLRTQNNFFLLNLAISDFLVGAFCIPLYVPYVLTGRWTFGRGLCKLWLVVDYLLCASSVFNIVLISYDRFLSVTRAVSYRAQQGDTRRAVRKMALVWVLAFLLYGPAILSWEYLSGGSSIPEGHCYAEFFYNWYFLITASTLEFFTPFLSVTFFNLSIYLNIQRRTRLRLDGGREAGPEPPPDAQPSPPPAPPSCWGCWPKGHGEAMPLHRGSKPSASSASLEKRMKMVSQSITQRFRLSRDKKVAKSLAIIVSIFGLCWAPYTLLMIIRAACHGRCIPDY

Values joined by “and” are separate entries in the source; they are usually repeats but may differ in a detail not shown here. Equal values may be shown once.

Usually Ki stands for a measure of affinity in units of concentration, obtained from inhibition or displacement. Read a high Ki as weaker binding. Consider `NC(=NCc1ccc(Cl)cc1)SCCCc1cnc[nH]1` [VUF 9153], for which the Ki was 0.48 nM and 0.6 nM.

These data come from BindingDB's records for PubMed 7965746 (U. 109, 1994).
